Test results published in patent US5073627A, “Fusion proteins comprising GM-CSF and IL-3” (Immunex Corporation, priority 1990, dated 1991).

Legend:
[1] = test system: unfractionated human bone marrow; experiment: Human bone marrow colony formation (CFU-GEMM, CFU-GM, BFU-E); type: cell-based; conditions: Table D; for Colonies (Mean ± S.D.) CFU-GEMM / Colonies (Mean ± S.D.) CFU-GM: 14 days; for Colonies (Mean ± S.D.) BFU-E: with erythropoietin, background 48 ± 2; for Colonies (Mean ± S.D.) CFU-GM: agar
[2] = molecular target: T1, receptors for GM-CSF on KG-1 cells (Homo sapiens, UniProt P15509+P32927); experiment: Inhibition of 125I-GM-CSF binding to KG-1 cells
T1 construct: endogenous in cells; host or cells: KG-1
T1 sequence (P15509 23-400): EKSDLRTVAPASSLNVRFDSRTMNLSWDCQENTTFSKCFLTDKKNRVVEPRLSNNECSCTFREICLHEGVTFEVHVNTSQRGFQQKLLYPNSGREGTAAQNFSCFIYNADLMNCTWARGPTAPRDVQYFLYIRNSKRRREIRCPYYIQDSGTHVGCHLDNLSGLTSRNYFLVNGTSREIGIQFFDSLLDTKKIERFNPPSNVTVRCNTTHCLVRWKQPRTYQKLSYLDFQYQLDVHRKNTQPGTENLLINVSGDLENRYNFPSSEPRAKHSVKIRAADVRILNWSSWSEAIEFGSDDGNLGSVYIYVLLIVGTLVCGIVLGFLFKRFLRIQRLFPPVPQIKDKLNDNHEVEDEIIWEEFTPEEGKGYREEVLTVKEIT
T1 sequence (P32927 17-897): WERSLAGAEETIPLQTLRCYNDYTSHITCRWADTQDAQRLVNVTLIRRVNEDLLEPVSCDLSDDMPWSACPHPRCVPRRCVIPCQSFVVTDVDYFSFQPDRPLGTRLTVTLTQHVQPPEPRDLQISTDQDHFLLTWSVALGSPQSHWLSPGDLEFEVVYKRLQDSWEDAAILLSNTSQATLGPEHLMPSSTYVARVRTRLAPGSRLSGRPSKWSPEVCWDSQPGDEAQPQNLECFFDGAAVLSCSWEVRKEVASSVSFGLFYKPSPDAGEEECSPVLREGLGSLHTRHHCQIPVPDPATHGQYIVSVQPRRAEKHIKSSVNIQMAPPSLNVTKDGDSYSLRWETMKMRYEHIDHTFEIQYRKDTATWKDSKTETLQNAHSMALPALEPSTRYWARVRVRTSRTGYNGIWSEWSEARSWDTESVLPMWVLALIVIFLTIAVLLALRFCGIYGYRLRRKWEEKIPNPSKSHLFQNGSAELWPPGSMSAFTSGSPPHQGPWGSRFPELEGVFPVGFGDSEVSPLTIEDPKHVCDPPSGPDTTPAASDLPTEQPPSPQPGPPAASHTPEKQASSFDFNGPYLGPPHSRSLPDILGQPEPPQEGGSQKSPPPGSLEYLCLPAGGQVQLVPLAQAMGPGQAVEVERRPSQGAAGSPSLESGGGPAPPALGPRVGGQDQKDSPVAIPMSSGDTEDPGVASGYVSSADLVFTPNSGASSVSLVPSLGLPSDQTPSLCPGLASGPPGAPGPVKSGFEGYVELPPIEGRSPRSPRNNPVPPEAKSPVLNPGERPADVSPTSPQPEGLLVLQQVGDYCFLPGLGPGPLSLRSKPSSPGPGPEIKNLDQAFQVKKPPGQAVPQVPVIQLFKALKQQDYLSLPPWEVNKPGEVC
Method: (§1) Briefly, 2-10 μg of recombinant protein in 50 μl 0.2M sodium phosphate, pH 7.2, was combined with 50 μl enzymobead reagent, 2 mCi of sodium iodide in 20 μl of 0.05M sodium phosphate pH 7 and 10 μl of 2.5% β-D-glucose. After 10 min at 25° C., sodium azide (10 μl of 50 mM) and sodium metabisulfite (10 μl of 5 mg/ml) were added sequentially and incubation continued for 5 minutes at 25° C.
(§2) B. Binding Assays. Binding assays were performed using JM-1, KG-1, HL-60 and AML-193 cells.

[3] = test system: AML-193 cells; experiment: Thymidine incorporation assay, proliferation of AML-193 cells; type: cell-based, human; conditions: one unit = amount of growth factor for half-maximal thymidine incorporation
Method: The cells were split twice weekly and were seeded into fresh medium at a density of 300,000/ml.
These samples were then serially diluted by 3-fold through the additional 11 wells of the microtitre plate. […] Tritiated thymidine ([…]) was added to each well for an additional 6 hours of incubation and the samples were harvested with an automated sample harvester and counted by liquid scintillation. One unit of activity is defined as the amount of growth factor required to stimulate half-maximal thymidine incorporation.

[4] = molecular target: T2, receptors for GM-CSF on HL-60 cells (Homo sapiens, UniProt P15509+P32927); conditions: as described by Park et al.; cited from earlier work
T2 construct: endogenous in cells; host or cells: HL-60
T2 sequence (P15509 23-400): T1 sequence (P15509 23-400)
T2 sequence (P32927 17-897): T1 sequence (P32927 17-897)

[5] = molecular target: T3, receptors for GM-CSF on AML-193 cells (Homo sapiens, UniProt P15509+P32927); experiment: Inhibition of 125I-GM-CSF binding to AML-193 cells
T3 construct: endogenous in cells; host or cells: AML-193
T3 sequence (P15509 23-400): T1 sequence (P15509 23-400)
T3 sequence (P32927 17-897): T1 sequence (P32927 17-897)
Method: as §1, §2

[6] = 625 pg/ml (GM-CSF + IL-3: 625 + 625)
[7] = 1250 pg/ml (GM-CSF + IL-3: 1250 + 1250)
[8] = 2500 pg/ml (GM-CSF + IL-3: 2500 + 2500)
[9] = 5000 pg/ml (GM-CSF + IL-3: 5000 + 5000)

B1: IL-3: recombinant human Interleukin-3 expressed in yeast, comparator (protein, UniProt P08700 20-152, looked up)
Interleukin-3: APMTQTTPLKTSWVNCSNMIDEIITHLKQPPLPLLDFNNLNGEDQDILMENNLRRPNLEAFNRAVKSLQNASAIESILKNLLPCLPLATAAPTRHPIHIKDGDWNEFRRKLTFYLKTLENAQAQQTTLSLAIF
modifications: expressed in yeast
notes: recombinant human Interleukin-3 expressed in yeast, comparator
Colonies (Mean ± S.D.) CFU-GEMM ([1]; 312 pg/ml (GM-CSF + IL-3: 312 + 312)): 0 colonies | Colonies (Mean ± S.D.) CFU-GEMM [1, 6]: 0 colonies | Colonies (Mean ± S.D.) BFU-E [1, 6]: 45 ± 3 colonies | Colonies (Mean ± S.D.) CFU-GEMM [1, 7]: 1.3 ± 0.3 colonies | Colonies (Mean ± S.D.) CFU-GM [1, 7]: 4 ± 1 colonies | Colonies (Mean ± S.D.) BFU-E [1, 7]: 49 ± 2 colonies | Colonies (Mean ± S.D.) CFU-GEMM [1, 8]: 4.0 ± 0.4 colonies | Colonies (Mean ± S.D.) CFU-GM [1, 8]: 9 ± 1 colonies | Colonies (Mean ± S.D.) BFU-E [1, 8]: 66 ± 2 colonies | Colonies (Mean ± S.D.) CFU-GEMM [1, 9]: 4.0 ± 0.7 colonies | Colonies (Mean ± S.D.) CFU-GM [1, 9]: 16 ± 0.3 colonies | Colonies (Mean ± S.D.) BFU-E [1, 9]: 67 ± 2 colonies | Competition of specific binding of heterologous radiolabeled ligand [2]: partially compete | Specific Activity [3]: 1.65 × 10^5 units/mg | Inhibition of 125I-GM-CSF binding to HL-60 cells [4]: nor does IL-3 inhibit binding | Competition of specific binding of heterologous radiolabeled ligand [5]: partially compete
